Measurements from publication PMC9677951 (Journal of medicinal chemistry, 2020).

The chains behind the UniProt entries cited, without tags or fusion partners. Where a name states a change or a piece, a line headed by the entry shows the natural chain unless it says otherwise.
UniProt Q12809: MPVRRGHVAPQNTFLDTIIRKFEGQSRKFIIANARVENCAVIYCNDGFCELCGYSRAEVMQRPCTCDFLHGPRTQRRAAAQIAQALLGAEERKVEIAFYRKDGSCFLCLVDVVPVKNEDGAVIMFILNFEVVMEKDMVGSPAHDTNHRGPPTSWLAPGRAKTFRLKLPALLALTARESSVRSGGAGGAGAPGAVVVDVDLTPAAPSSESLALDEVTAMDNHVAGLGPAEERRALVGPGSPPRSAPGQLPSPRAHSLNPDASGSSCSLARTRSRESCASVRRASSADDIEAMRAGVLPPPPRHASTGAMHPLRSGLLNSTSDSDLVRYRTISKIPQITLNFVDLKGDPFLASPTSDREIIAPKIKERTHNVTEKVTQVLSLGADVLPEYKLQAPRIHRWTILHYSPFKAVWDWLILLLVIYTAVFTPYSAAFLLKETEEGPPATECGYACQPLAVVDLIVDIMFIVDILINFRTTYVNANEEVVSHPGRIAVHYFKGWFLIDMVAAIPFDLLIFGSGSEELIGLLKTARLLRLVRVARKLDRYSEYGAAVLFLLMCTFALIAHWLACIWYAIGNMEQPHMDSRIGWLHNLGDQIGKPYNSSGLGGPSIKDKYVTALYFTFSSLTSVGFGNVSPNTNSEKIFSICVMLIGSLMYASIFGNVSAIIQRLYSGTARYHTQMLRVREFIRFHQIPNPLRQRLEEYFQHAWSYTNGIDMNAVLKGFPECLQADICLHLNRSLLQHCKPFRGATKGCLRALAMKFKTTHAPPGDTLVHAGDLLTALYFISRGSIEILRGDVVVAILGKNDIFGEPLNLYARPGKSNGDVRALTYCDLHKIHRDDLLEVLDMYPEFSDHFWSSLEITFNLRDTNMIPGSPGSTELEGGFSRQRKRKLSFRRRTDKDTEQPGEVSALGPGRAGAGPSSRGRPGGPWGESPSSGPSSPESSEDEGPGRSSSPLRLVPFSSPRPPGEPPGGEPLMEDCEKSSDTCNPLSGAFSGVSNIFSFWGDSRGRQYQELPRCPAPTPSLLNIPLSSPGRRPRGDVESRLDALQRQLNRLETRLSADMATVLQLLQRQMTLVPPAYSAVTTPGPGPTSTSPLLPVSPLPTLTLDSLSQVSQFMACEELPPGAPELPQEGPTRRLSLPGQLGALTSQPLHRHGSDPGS

Tests used:
[1] = tested on: MT-4 cells; details: for cytotoxicity at fixed concentration: at the concentration of 300 μM
[2] = in vitro; details: human, CC50, mock-infected MT-4 cells, MTT method
[3] = tested on: MT-4 cells; details: previously reported; ref [9]-[13]; cited from earlier work
[4] = molecular target: hERG potassium channel (Homo sapiens, UniProt Q12809); details: HEK293 cells, individual cells 1-3
[5] = in vitro; details: human, microsomes

Compound: Cc1cc(C#N)cc(C)c1Oc1nc(Nc2ccc(C#N)cc2)nc(N)c1Br [ETR, Etravirine]
- CC50 ([1]; mock-infected MT-4 cells, MTT method): > 4.59 µM
- CC50 [2]: > 4.58 µM
- CC50 [3]: > 4.6 µM

Compound: Cc1cc(C#N)cc(C)c1Oc1nc(Nc2ccc(C#N)c(F)c2)nc2sccc12 [Compound 11b, 4-((2-((4-cyano-3-fluorophenyl)amino)thieno[2,3-d]pyrimidin-4-yl)oxy)-3,5-dimethylbenzonitrile]
- cytotoxicity at fixed concentration [1]: no cytotoxicity

Compound: Cc1cc(C#N)cc(C)c1Oc1nc(Nc2ccc(C#N)c(F)c2)nc2ccsc12 [Compound 9b, 4-((2-((4-cyano-3-fluorophenyl)amino)thieno[3,2-d]pyrimidin-4-yl)oxy)-3,5-dimethylbenzonitrile]
- cytotoxicity at fixed concentration [1]: no cytotoxicity

Compound: Cc1cc(/C=C/C#N)cc(C)c1Oc1nc(Nc2ccc(C#N)c(F)c2)nc2ccsc12 [Compound 24b, (E)-4-((4-(4-(2-cyanovinyl)-2,6-dimethylphenoxy)thieno[3,2-d]pyrimidin-2-yl)amino)-2-fluorobenzonitrile]
- hERG inhibitory effect, single cell ([4]; 0.3 μM): 4.12% and 1.75%
- hERG inhibitory effect, single cell ([4]; 1 μM): 9.21%
- hERG inhibitory effect, single cell ([4]; 3 μM): 11.90%
- hERG inhibitory effect, single cell ([4]; 30 μM): 22.85%
- CLint scaled [5]: 15.6 mL/min/kg

Several values for one entry are separate records, joined by “and”; a condition that tells them apart may be missing. Equal entries are not always repeated. Where two headings read alike, the source gives them in different places.
